The entries are a selection whose mix differs from that of the whole data set. Results filed as inconclusive are left out. Active and inactive are the calls of the source. The call rests on the fitted dose curve; in most records, active means well fitted activation curve with a large enough effect; inconclusive means small, poorly fitted or top-dose-only effect; inactive means no such curve, though single readings can be large or run the other way.

A short description of the assay: A quantitative high throughput screen for small molecules that induce DNA re-replication in SW480 colon adenocarcinoma cells. Further: % of control where 0% means no effect; nearly all actives have a fitted effect of over 55% in size. Particulars: Hoechst DNA content imaging, 48 h; at 46.1 µM (top of the series).
For `CCC(=O)N(c1ccccc1)C1(COC)CCN(CCn2nnn(CC)c2=O)CC1`, the re-replication activation is inactive: -12.6%.

The record behind these values is PubChem BioAssay AID624297 (National Center for Advancing Translational Sciences (NCATS), 2012).
